The numbers were not newly measured in article PMC8456950, “Structure‐Guided Design of G‐Protein‐Coupled Receptor Polypharmacology” (Angewandte Chemie (International Ed. in English), 2021), which cites them from elsewhere.

Each structure is given as a SMILES string.

For the data set the following is noted: CNS active drugs for comparison; cited from earlier work.

With `Cc1nc2n(c(=O)c1CCN1CCC(c3noc4cc(F)ccc34)CC1)CCCC2` [risperidone], the brain-to-plasma ratio is 0.95.
